Literature values as cited in US7179597B2, “Genetic diagnosis for QT prolongation related adverse drug reactions” (Georgetown University, priority 2000, dated 2007).

The chains behind the UniProt entries cited, without tags or fusion partners.
UniProt P10635, whole entry: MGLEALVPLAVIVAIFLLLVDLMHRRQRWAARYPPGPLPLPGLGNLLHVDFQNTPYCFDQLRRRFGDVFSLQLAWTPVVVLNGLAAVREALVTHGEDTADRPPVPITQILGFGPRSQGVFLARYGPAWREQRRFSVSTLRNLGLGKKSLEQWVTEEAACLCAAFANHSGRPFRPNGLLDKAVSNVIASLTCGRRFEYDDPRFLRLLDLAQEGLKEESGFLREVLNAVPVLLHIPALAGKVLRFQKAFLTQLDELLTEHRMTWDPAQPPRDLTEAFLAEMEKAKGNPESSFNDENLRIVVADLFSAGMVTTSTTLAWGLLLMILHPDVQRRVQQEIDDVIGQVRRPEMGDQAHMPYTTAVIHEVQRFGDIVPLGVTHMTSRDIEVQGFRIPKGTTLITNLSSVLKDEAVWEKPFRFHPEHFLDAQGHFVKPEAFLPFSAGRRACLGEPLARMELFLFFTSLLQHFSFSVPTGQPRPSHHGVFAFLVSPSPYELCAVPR

How the values were obtained:
CYP2D6 = CYP2D6 (Homo sapiens, UniProt P10635); conditions: Table 3; cited from earlier work
[1] = Table 2; drug labeling; cited from earlier work

Molecule	Interactions: cytochrome P-450 isoform 2D6, substrate or inhibitor (CYP2D6)	QT [1]
Cc1nc2n(c(=O)c1CCN1CCC(c3noc4cc(F)ccc34)CC1)CCCC2 [Risperidone]	Substrate	
Levomethadyl		Yes
